Tested on: human plasma (Homo sapiens)
Assay: Protein binding as % unbound in human plasma

Row | fraction unbound | Compound
1 | 0.0027 | C[C@H](CO)Nc1nc(SCc2ccccc2)nc2[nH]c(=O)sc12
2 | 0.017 | C[C@H](CO)Nc1nc(SCc2cccc(F)c2F)nc2[nH]c(=O)c(C#N)cc12
